For the data set, the system named is zein protein. Description: Zein solubilisation (mildness to skin). Conditions: 10% active solution of SLES, before addition of CAPB.

Sodium Lauryl Ether Sulphate [SLES] gave a zein solubilisation percentage of 90%.

For the origin of these results see patent publication US20240301324A1, “COMPOSITION” (Croda International Plc, priority 2021, published 2024).
